Test results reported in patent US20140148430A1, “IMIDAZOPYRIDINES SYK INHIBITORS” (Gilead Connecticut, Inc., priority 2012, published 2014).

Molecular target: N-terminally GST-tagged full length human wildtype Syk (Homo sapiens, UniProt P43405)
Experiment: Biochemical Syk Assay

SMILES | IC50 [nM]
Cc1cc(Nc2cc(-c3ccc4c(c3)ncn4C)cn3ccnc23)nn1C [1,5-dimethyl-N-[6-(1-methyl-1H-1,3-benzodiazol-5-yl)imidazo[1,2-a]pyridin-8-yl]-1H-pyrazol-3-amine] | 188
NC(=O)c1c(-c2ccc3cn[nH]c3c2)cc(Nc2ccc(N3CCOCC3)cn2)c2nccn12 [6-(1H-indazol-6-yl)-8-(5-morpholinopyridin-2-ylamino)imidazo[1,2-a]pyridine-5-carboxamide] | 569
CCc1c(-c2ccc3cc[nH]c3c2)cc(Nc2ccc(N3CCN(CC)CC3)cn2)c2nccn12 [5-ethyl-N-(5-(4-ethylpiperazin-1-yl)pyridin-2-yl)-6-(1H-indol-6-yl)imidazo[1,2-a]pyridin-8-amine] | 272
CCN1CCN(c2ccc(Nc3cc(-c4ccc5c(CCO)c[nH]c5c4)c(C)n4ccnc34)nc2)CC1 [2-(6-(8-(5-(4-ethylpiperazin-1-yl)pyridin-2-ylamino)-5-methylimidazo[1,2-a]pyridin-6-yl)-1H-indol-3-yl)ethanol] | 301
c1cc(Nc2cc(-c3ccc4cn[nH]c4c3)cn3ccnc23)ncn1 [N-[6-(1H-indazol-6-yl)imidazo[1,2-a]pyridin-8-yl]pyrimidin-4-amine] | 297
CCc1c(-c2ccc3c(c2)NC(=O)C3)cc(Nc2ccc(N3CCN(CC)CC3)cn2)c2nccn12 [6-(5-ethyl-8-(5-(4-ethylpiperazin-1-yl)pyridin-2-ylamino)imidazo[1,2-a]pyridin-6-yl)indolin-2-one] | 532
CC(C)(CO)c1ccc(Nc2cc(-c3ccc4c(CCO)c[nH]c4c3)cn3ccnc23)cc1 [2-[4-({6-[3-(2-hydroxyethyl)-1H-indol-6-yl]imidazo[1,2-a]pyridin-8-yl}amino)phenyl]-2-methylpropan-1-ol] | 138
CCn1ccc(Nc2cc(-c3ccc4c(c3)NC(=O)CO4)cn3ccnc23)n1 [6-{8-[(1-ethyl-1H-pyrazol-3-yl)amino]imidazo[1,2-a]pyridin-6-yl}-3,4-dihydro-2H-1,4-benzoxazin-3-one] | 548
O=C(O)c1c(-c2ccc3cn[nH]c3c2)cc(Nc2ccc(N3CCOCC3)cn2)c2nccn12 [6-(1H-indazol-6-yl)-8-(5-morpholinopyridin-2-ylamino)imidazo[1,2-a]pyridine-5-carboxylic acid] | 4230
CCN1CCN(c2ccc(Nc3cc(-c4ccc5cc[nH]c5c4)c(Cl)n4ccnc34)nc2)CC1 [5-chloro-N-(5-(4-ethylpiperazin-1-yl)pyridin-2-yl)-6-(1H-indol-6-yl)imidazo[1,2-a]pyridin-8-amine] | 271
CCN1CCN(c2ccc(Nc3cc(-c4ccc5cc(C)[nH]c5c4)c(C)n4ccnc34)nc2)CC1 [N-(5-(4-ethylpiperazin-1-yl)pyridin-2-yl)-5-methyl-6-(2-methyl-1H-indol-6-yl)imidazo[1,2-a]pyridin-8-amine] | 423
Cc1c(-c2ccc3c(CCO)cn(C)c3c2)cc(Nc2ccc(N3CCOCC3)cn2)c2nccn12 [2-(1-methyl-6-(5-methyl-8-(5-morpholinopyridin-2-ylamino)imidazo[1,2-a]pyridin-6-yl)-1H-indol-3-yl)ethanol] | 320
CCN1CCN(c2ccc(Nc3cc(-c4ccc5c(CCO)c[nH]c5c4)c(Cl)n4ccnc34)nc2)CC1 [2-(6-(5-chloro-8-(5-(4-ethylpiperazin-1-yl)pyridin-2-ylamino)imidazo[1,2-a]pyridin-6-yl)-1H-indol-3-yl)ethanol] | 215
CCc1c(-c2ccc3cn[nH]c3c2)cc(Nc2ccc(N3CCN(CC)CC3)cn2)c2nccn12 [5-ethyl-N-(5-(4-ethylpiperazin-1-yl)pyridin-2-yl)-6-(1H-indazol-6-yl)imidazo[1,2-a]pyridin-8-amine] | 252
CC(C)N1CCN(c2ccc(Nc3cc(-c4ccc5c(CCO)cn(C)c5c4)c(Cl)n4ccnc34)nc2)CC1 [2-(6-(5-ehloro-8-(5-(4-isopropylpiperazin-1-yl)pyridin-2-ylamino)imidazo[1,2-a]pyridin-6-yl)-1-methyl-1H-indol-3-yl)ethanol] | 218

Further compounds by falling IC50, results first:

IC50 [nM] | SMILES
1050 | COc1ccc(Nc2cc(-c3ccc4cn[nH]c4c3)cn3ccnc23)cc1OC [N-(3,4-dimethoxyphenyl)-6-(1H-indazol-6-yl)imidazo[1,2-a]pyridin-8-amine]
1030 | Cc1c(-c2ccc3c(c2)N(C)C(=O)C3)cc(Nc2ccc(N3CCOCC3)cn2)c2nccn12 [1-methyl-6-(5-methyl-8-(5-morpholinopyridin-2-ylamino)imidazo[1,2-a]pyridin-6-yl)indolin-2-one]
883 | CCN1CCN(c2ccc(Nc3cc(-c4ccc5c(C(=O)NC)c[nH]c5c4)c(C)n4ccnc34)nc2)CC1 [6-(8-(5-(4-ethylpiperazin-1-yl)pyridin-2-ylamino)-5-methylimidazo[1,2-a]pyridin-6-yl)-N-methyl-1H-indole-3-carboxamide]
291 | c1cn2cc(-c3ccc4cn[nH]c4c3)cc(Nc3csc(N4CCOCC4)n3)c2n1 [N-[6-(1H-indazol-6-yl)imidazo[1,2-a]pyridin-8-yl]-2-(morpholin-4-yl)-1,3-thiazol-4-amine]
278 | CCN1CCN(c2ccc(Nc3cc(-c4ccc5c(CCO)cn(C)c5c4)c(Cl)n4ccnc34)nc2)CC1 [2-(6-(5-chloro-8-(5-(4-ethylpiperazin-1-yl)pyridin-2-ylamino)imidazo[1,2-a]pyridin-6-yl)-1-methyl-1H-indol-3-yl)ethanol]
182 | Cc1cc(Nc2cc(-c3ccc4ncn(C)c4c3)cn3ccnc23)nn1C [1,5-dimethyl-N-[6-(1-methyl-1H-1,3-benzodiazol-6-yl)imidazo[1,2-a]pyridin-8-yl]-1H-pyrazol-3-amine]
171 | CCn1ccc(Nc2cc(-c3ccc4nc(N)ncc4c3)cn3ccnc23)n1 [6-{8-[(1-ethyl-1H-pyrazol-3-yl)amino]imidazo[1,2-a]pyridin-6-yl}quinazolin-2-amine]
166 | Cc1c(-c2cnc3[nH]ccc3c2)cc(Nc2ccc(N3CCOCC3)cn2)c2nccn12 [5-methyl-N-(5-morpholinopyridin-2-yl)-6-(1H-pyrrolo[2,3-b]pyridin-5-yl)imidazo[1,2-a]pyridin-8-amine]
154 | Cc1cc(Nc2cc(-c3ccc4c(c3)NCCO4)cn3ccnc23)nn1C [N-[6-(3,4-dihydro-2H-1,4-benzoxazin-6-yl)imidazo[1,2-a]pyridin-8-yl]-1,5-dimethyl-1H-pyrazol-3-amine]
128 | Cc1c(-c2ccc3cn[nH]c3c2)cc(Nc2ccc(N3CCNCC3)cn2)c2nccn12 [6-(1H-indazol-6-yl)-5-methyl-N-(5-(piperazin-1-yl)pyridin-2-yl)imidazo[1,2-a]pyridin-8-amine]
